Assay results reported in ChEMBL document CHEMBL5096169, “Recent progress in agents targeting polo-like kinases: Promising therapeutic strategies” (Eur J Med Chem, 2021).

How the values were obtained:
[1] = species: Homo sapiens; assay: Selectivity index, ratio of IC50 for inhibition of recombinant C-terminal 6His-tagged human PLK2-PBD to IC50 for inhibition of human PLK1-PBD
[2] = species: Homo sapiens; assay: Selectivity index, ratio of IC50 for inhibition of recombinant N-terminal MBP-tagged human PLK3-PBD to IC50 for inhibition of human PLK1-PBD

SMILES: C[C@@]12CN(Cc3cccc(C#N)c3)C[C@@](C)(C1)c1c(-c3ccc4ccccc4c3)ccc(=O)n1C2
- Ratio IC50 [1]: 5
- Ratio IC50 [2]: 5
